Measured values as given in PubChem BioAssay AID492959 (The Scripps Research Institute Molecular Screening Center, 2010).
Active and inactive are the calls of the source.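 How the source made its calls: active means IC50 of 10 µM or lower; inactive means IC50 above 10 µM.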

System: E. coli AddAB+ with T4 gene 2 phage, OD growth
Experiment: AddAB complex inhibitors, phage-infection growth assay, dose response, absorbance, E. coli, T4 phage (AID 492959);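 further: growth read as OD600 after 18 h at 37 °C; AddAB inhibitors let the phage kill the cells so OD falls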
Conditions: AddAB enzyme is from H. pylori; T4 phage with nonsense-mutated gene 2

## Cc1cc(NS(=O)(=O)c2ccc(N)cc2)no1
  IC50: inactive: 36.2 µM
